Sequences of proteins named here, by UniProt entry; tags and fusion partners are left off.
UniProt P23975, whole entry: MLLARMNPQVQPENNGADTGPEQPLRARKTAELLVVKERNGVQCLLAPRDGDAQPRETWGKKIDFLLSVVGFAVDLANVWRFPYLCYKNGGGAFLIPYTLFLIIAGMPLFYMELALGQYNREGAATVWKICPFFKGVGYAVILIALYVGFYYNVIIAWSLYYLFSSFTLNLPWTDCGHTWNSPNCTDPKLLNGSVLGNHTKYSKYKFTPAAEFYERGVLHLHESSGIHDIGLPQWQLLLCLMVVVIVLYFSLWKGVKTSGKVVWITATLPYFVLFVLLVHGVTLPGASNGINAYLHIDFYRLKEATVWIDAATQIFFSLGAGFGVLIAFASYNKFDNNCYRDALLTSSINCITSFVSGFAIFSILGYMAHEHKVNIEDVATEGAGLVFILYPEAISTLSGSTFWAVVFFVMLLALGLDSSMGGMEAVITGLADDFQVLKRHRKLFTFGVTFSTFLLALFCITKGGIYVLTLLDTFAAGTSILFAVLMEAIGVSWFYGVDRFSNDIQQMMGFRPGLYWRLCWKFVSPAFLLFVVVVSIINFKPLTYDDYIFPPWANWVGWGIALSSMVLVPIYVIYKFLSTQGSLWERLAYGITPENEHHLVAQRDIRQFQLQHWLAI

According to ChEMBL document CHEMBL1140446, “Designed multiple ligands. An emerging drug discovery paradigm” (J Med Chem, 2005):

Target: Sodium-dependent noradrenaline transporter (Homo sapiens, UniProt P23975)

In the case of `CN(C)C[C@@H]1C2CCC(CC2)[C@@H]1c1cccc(Cl)c1`, the IC50 is reported as 22 nM.
